Values quoted from earlier work, collected in patent US12370233B2, “Depot systems comprising glatiramer acetate” (MAPI PHARMA LTD., priority 2016, dated 2025).

Settings: as reported by Rotstein et al., JAMA Neurol., 2015

B1: peginterferon beta-la (protein, UniProt P01574 22-187, looked up)
Interferon beta: MSYNLLGFLQRSSNFQCQKLLWQLNGRLEYCLKDRMNFDIPEEIKQLQQFQKEDAALTIYEMLQNIFAIFRQDSSSTGWNETIVENLLANVYHQINHLKTVLEEKLEKEDFTRGKLMSSLHLKRYYGRILHYLKAKEYSHCAWTIVRVEILRNFYFINRLTGYLRN
modifications: PEGylated (peginterferon beta-1a)
notes: approved therapy for relapsing remitting MS
  NEDA at one year: 34%
